Earlier results, collected in article PMC11642070, “OCTN1 (SLC22A4) as a Target of Heavy Metals: Its Possible Role in Microplastic Threats” (International Journal of Molecular Sciences, 2024).

Set-up: key to the marks not given beside the values
Details: according to ATSDR; ref https://www.atsdr.cdc.gov/toxprofiles; cited from earlier work

Q: For Mercury, which “Level of Toxicity” value is on record?
A: +++
